Test results published in US20030069395A1 (DYAX, published 2003).

B1: DX-999, Ac-GDNRECVTMWPFEQIFCPWPDPGGGK-NH2 (peptide)
peptide: GDNRECVTMWPFEQIFCPWPDPGGGK
modifications: N-terminal acetyl; C-terminal amide; fluorescein on the C-terminal Lys side chain
B2: DX-238, Ac-AEGTGSFRNCEPWMLRFGCNPRAPEGGGK-NH2 (peptide)
peptide: AEGTGSFRNCEPWMLRFGCNPRAPEGGGK
modifications: N-terminal acetyl; C-terminal amide; fluorescein on the C-terminal Lys side chain
B3: truncated peptide of DX-236, Ac-…-NH2 (as printed) (peptide)
peptide: AEGTGDFWFCDRIAWYPQHLCEFLGGGK
modifications: N-terminal acetyl; C-terminal amide; fluorescein on the C-terminal Lys side chain
notes: perhaps a misprint
B4: truncated peptide of DX-236, Ac-CDRIAWYPQHLCGGGK-NH2 (peptide)
peptide: CDRIAWYPQHLCGGGK
modifications: N-terminal acetyl; C-terminal amide; fluorescein on the C-terminal Lys side chain
B5: truncated peptide of DX-236, Ac-DRIAWYPQHLGGGK-NH2 (peptide)
peptide: DRIAWYPQHLGGGK
modifications: N-terminal acetyl; C-terminal amide; fluorescein on the C-terminal Lys side chain
notes: Linear, no cysteines

Columns and labels:
[1] = biological target: T1, human serum albumin (HSA) (human, UniProt P02768 25-609); experiment: fluoresceinated peptide; PBS
T1 construct: also called caprylate-biotinylated-HSA
Method: (§1) Affinity determinations were made by first labeling polypeptides on the C-terminal end with NHS-fluorescein. Fluorescence anisotropy measurements were performed in 384-well microplates in a volume of 10 μl in binding buffer using a Tecan Polarion fluorescence polarization plate reader. The concentration of fluorescein labeled peptide was held constant (20 nM), and the concentration of HSA was varied. For pH 6.2, 7.1, and 7.4 binding conditions, a 3 mM phosphate, 0.01% Tween-20 buffer was used. For pH 9.1 binding conditions, a 3 mM sodium bicarbonate buffer, 0.01% Tween-20 nonionic detergent buffer was used. Once NaCl was added to any of these buffers, their pH was adjusted again to achieve the original pH. The binding mixtures were equilibrated for 10 minutes in the microplate at 30° C. prior to performing the measurement. The observed change in anisotropy was fit to the equation below via nonlinear regression to obtain the apparent KD. This equation assumes that the peptide and HSA form a reversible complex with 1:1 stoichiometry.
(§2) Each of the polypeptides was fluoresceinated and tested for binding against an immobilized HSA target as described above.

[2] = biological target: T1, human serum albumin (HSA); experiment: fluoresceinated peptide; 3 mM phosphate buffer, pH 6.2, no salt
Method: as §1, §2

[3] = biological target: T1, human serum albumin (HSA); experiment: fluorescence anisotropy, fluorescein-labelled peptide, PBS
Method: as §1
Selected HSA binding polypeptides from these additional library selections were synthesized, fluorescein-labeled as in Example 1, and tested to determine an apparent KD for HSA in PBS. […]

[4] = biological target: T1, human serum albumin (HSA); experiment: fluorescence anisotropy; pH 6.2, 0.14 M NaCl, no caprylate
Method: as §1

[5] = biological target: T1, human serum albumin (HSA); experiment: fluorescence anisotropy; pH 6.2, no NaCl, no caprylate
Method: as §1

[6] = biological target: T1, human serum albumin (HSA); experiment: fluorescence anisotropy; pH 7.4, 0.14 M NaCl, 0.1% caprylate
Method: as §1
Once all the positive phage isolates were sequenced, peptides corresponding to the display peptide were synthesized. […]

[7] = biological target: T1, human serum albumin (HSA); experiment: fluorescence anisotropy; pH 7.4, 0.14 M NaCl, no caprylate
Method: as §1

[8] = biological target: T1, human serum albumin (HSA); experiment: fluorescence anisotropy; buffer not named in Table 2

Kd [1] | Kd [2] | also measured | Binder
43 µM | 1100 nM |  | AEGTGDFWACDRIAWYPQHLCEFLDPEGGGK (N-terminal acetyl; C-terminal amide; fluoresceinated) [alanine mutant of DX-236, Ac-AEGTGDFWACDRIAWYPQHLCEFLDPEGGGK-NH2]
 | 1600 nM |  | AEGTGDFWFCARIAWYPQHLCEFLDPEGGGK (N-terminal acetyl; C-terminal amide; fluoresceinated) [alanine mutant of DX-236, Ac-AEGTGDFWFCARIAWYPQHLCEFLDPEGGGK-NH2]
4.5 µM | 1100 nM |  | AEGTGDFWFCDRAAWYPQHLCEFLDPEGGGK (N-terminal acetyl; C-terminal amide; fluoresceinated) [alanine mutant of DX-236, Ac-AEGTGDFWFCDRAAWYPQHLCEFLDPEGGGK-NH2]
44 µM |  |  | AEGTGDFWFCDRIAAYPQHLCEFLDPEGGGK (N-terminal acetyl; C-terminal amide; fluoresceinated) [alanine mutant of DX-236, Ac-AEGTGDFWFCDRIAAYPQHLCEFLDPEGGGK-NH2]
43 µM |  |  | AEGTGDFWFCDRIAWYAQHLCEFLDPEGGGK (N-terminal acetyl; C-terminal amide; fluoresceinated) [alanine mutant of DX-236, Ac-AEGTGDFWFCDRIAWYAQHLCEFLDPEGGGK-NH2]
34.5 µM |  |  | AEGTGDFWFCDRIAWYPQHACEFLDPEGGGK (N-terminal acetyl; C-terminal amide; fluoresceinated) [alanine mutant of DX-236, Ac-AEGTGDFWFCDRIAWYPQHACEFLDPEGGGK-NH2]
6.6 µM | 1700 nM |  | AEGTGDFWFCDRIAWYPQHLCAFLDPEGGGK (N-terminal acetyl; C-terminal amide; fluoresceinated) [alanine mutant of DX-236, Ac-AEGTGDFWFCDRIAWYPQHLCAFLDPEGGGK-NH2]
44 µM | 1700 nM |  | AEGTGDFWFCDRIAWYPQHLCEALDPEGGGK (N-terminal acetyl; C-terminal amide; fluoresceinated) [alanine mutant of DX-236, Ac-AEGTGDFWFCDRIAWYPQHLCEALDPEGGGK-NH2]
47 µM | 2100 nM |  | AEGTGDFWFCDRIAWYPQHLCEFADPEGGGK (N-terminal acetyl; C-terminal amide; fluoresceinated) [alanine mutant of DX-236, Ac-AEGTGDFWFCDRIAWYPQHLCEFADPEGGGK-NH2]
10.5 µM | 1700 nM |  | AEGTGDFWFCDRIAWYPQHLCEFLAPEGGGK (N-terminal acetyl; C-terminal amide; fluoresceinated) [alanine mutant of DX-236, Ac-AEGTGDFWFCDRIAWYPQHLCEFLAPEGGGK-NH2]
 |  | Kd [3]: 12 µM | B1
 |  | Kd [4]: 61 µM; Kd [5]: 4.8 µM; Kd [6]: 110 µM; Kd [7]: 79 µM | B2
 |  | Kd [8]: 9.9 µM | B3
 |  | Kd [8]: 16 µM | B4
 |  | Kd [8]: 125 µM | B5
